## Apparent affinities of Ab-95 variants for a coronavirus HR2 peptide

The target is the same throughout: PDVDLGDISGINAS, from the HR2 region of SARS-CoV-2 spike.

Parent: Ab-95, a human scFv built as VH, a (GGGGS)3 linker, VL. Only the CDRs of the light chain vary.
VH: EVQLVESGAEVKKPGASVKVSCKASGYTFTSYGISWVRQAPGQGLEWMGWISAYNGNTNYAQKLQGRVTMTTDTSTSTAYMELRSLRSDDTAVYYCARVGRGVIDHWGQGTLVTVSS
VL: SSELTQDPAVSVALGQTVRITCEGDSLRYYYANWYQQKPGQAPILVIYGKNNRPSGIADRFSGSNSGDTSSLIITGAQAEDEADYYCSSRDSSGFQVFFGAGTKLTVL

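The parent was found by panning a naive human phage display library on the peptide. Library AAYL52 holds single substitutions and randomly drawn double and triple substitutions in the CDRs. Affinity was read by AlphaSeq, a pooled yeast mating assay with surface-displayed partners. Mating (16 h, 30 °C) was followed by selection of diploids and sequencing of their barcodes. The ratio of observed to expected reads was calibrated, replicate by replicate, on BCL2-family standards whose Kd was known from biolayer interferometry. The assay was run in three technical replicates.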

Changes read parent residue, position, new residue, counted from the first residue of the VL shown.
This list gathers variants with a substitution at R53 (VL, numbered from residue 1).
Affinities are written as log10 Kd with Kd in nM; a lower number is a better binder.
A mean of the replicates is given; it leaves out those without a signal.
A pair that was not seen in that replicate is written "ND"; this usually means weak binding, but a binder can also be missed.

changes,"replicates, log10 nM","mean, log10 nM",control signals
L27K/R53F/S55T,ND / 3.21 / ND,3.21,4/9 (3.00)
R53W/P54M,ND / 3.46 / ND,3.46,1/9 (3.86)
R53D/D91C,4.05 / ND / ND,4.05,2/9 (3.68)
Y29A/N52T/R53Q,ND / 4.97 / ND,4.97,2/9 (4.44)
R53F/S93M/V97D,ND / ND / ND,ND,2/9 (3.27)
G49T/N52D/R53S,ND / ND / ND,ND,0/9
N33M/R53I/R90T,ND / 4.10 / ND,4.10,0/9
R53G/F95Y/V97E,5.48 / 5.52 / 3.54,4.84,4/9 (3.53)
R53P/R90L/D91W,ND / 4.19 / 3.41,3.80,4/9 (4.29)
G49V/R53N/S89G,2.89 / ND / ND,2.89,1/9 (4.01)
R28W/R53M/F98Y,4.14 / ND / ND,4.14,0/9
R53L/F95S,3.17 / 2.04 / ND,2.61,2/9 (4.11)
Y30R/R53M,2.11 / 2.65 / 2.53,2.43,3/9 (3.92)
D25R/R53D/D91N,ND / ND / 3.44,3.44,3/9 (3.80)
R28T/A32F/R53V,4.61 / ND / ND,4.61,2/9 (4.42)
A32L/R53V/F95Q,ND / 3.60 / 3.04,3.32,2/9 (4.20)
G49C/R53V/S93L,4.21 / 4.27 / 3.22,3.90,5/9 (3.57)
N52Q/R53S/Q96I,2.54 / 2.61 / 2.72,2.62,7/9 (3.98)
N33T/R53W,ND / ND / ND,ND,1/9 (3.16)
N52K/R53Y/S89G,ND / ND / 4.22,4.22,4/9 (3.43)
N33Y/N51K/R53F,ND / ND / ND,ND,1/9 (3.99)
R53T/G94H/V97W,3.88 / 3.10 / 3.95,3.64,2/9 (3.03)
Y30L/R53K/P54H,ND / 3.36 / ND,3.36,0/9
N33Q/R53F/S88N,5.57 / ND / 4.30,4.94,0/9
R53D/S89D/D91F,4.89 / 4.07 / 2.46,3.81,3/9 (4.02)
Y31F/R53D/S89C,4.62 / ND / 3.86,4.24,1/9 (3.74)
R28A/R53T/S89E,3.51 / 3.16 / 2.68,3.12,5/9 (3.43)
Y31R/R53H/P54H,5.29 / 3.13 / 3.38,3.93,5/9 (4.03)
G24T/R53F/D91S,ND / ND / ND,ND,4/9 (4.26)
R28W/R53C/P54Q,2.48 / 2.65 / 2.72,2.61,2/9 (3.74)
S26Y/L27C/R53L,ND / ND / 3.07,3.07,1/9 (4.27)
L27E/R53W/F98I,4.96 / ND / ND,4.96,2/9 (3.44)
S26A/R53W/D91K,4.81 / 5.56 / 4.35,4.91,4/9 (3.97)
R53L/P54T/G94V,2.97 / 3.64 / 2.65,3.09,2/9 (3.35)
R53I/S89W/S93G,3.18 / ND / ND,3.18,2/9 (3.01)
R53L/R90D/Q96A,2.73 / 4.27 / ND,3.50,3/9 (4.13)
N52M/R53V,2.64 / 2.11 / 2.01,2.25,4/9 (4.31)
Y29S/R53C/D91W,3.20 / 3.54 / 4.25,3.66,3/9 (4.71)
R53S/S93N,3.11 / 2.95 / 3.04,3.03,4/9 (3.95)
R28Y/Y29R/R53Q,3.50 / ND / 4.25,3.87,3/9 (3.60)
K50H/R53G/P54V,4.44 / 4.81 / 4.19,4.48,3/9 (4.19)
R53S/Q96T,4.25 / 4.02 / ND,4.13,3/9 (4.58)
K50Y/R53D/Q96V,4.26 / ND / 3.84,4.05,4/9 (4.17)
R53E/S92N/S93Y,4.84 / 4.89 / ND,4.86,3/9 (3.63)
E23F/D25S/R53Q,4.77 / ND / ND,4.77,3/9 (4.53)
G49C/R53D/Q96G,ND / ND / ND,ND,0/9
L27F/R53M,ND / ND / ND,ND,1/9 (3.41)
S26I/R53Y/S89D,ND / ND / 4.33,4.33,0/9
L27T/R53T/R90C,5.36 / ND / ND,5.36,1/9 (4.51)
L27V/R53C/V97D,4.28 / ND / 4.33,4.30,3/9 (4.11)
N33E/R53L/S88P,ND / 5.73 / 4.30,5.02,1/9 (2.96)

Again, the first 7 entries without any signal:

changes,"replicates, log10 nM","mean, log10 nM",control signals
R53F/S93M/V97D,ND / ND / ND,ND,2/9 (3.27)
G49T/N52D/R53S,ND / ND / ND,ND,0/9
N33T/R53W,ND / ND / ND,ND,1/9 (3.16)
N33Y/N51K/R53F,ND / ND / ND,ND,1/9 (3.99)
G24T/R53F/D91S,ND / ND / ND,ND,4/9 (4.26)
G49C/R53D/Q96G,ND / ND / ND,ND,0/9
L27F/R53M,ND / ND / ND,ND,1/9 (3.41)

In this assay the parent's reference entry averaged 2.31; its copy inside this library read 2.25.
Nonspecific signal, from three strains lacking the peptide, appeared in 28% of pairings of library AAYL52, centred on 3.91 (5% of these signals below 2.90); values are not corrected for it. The control count says in how many pairings with the empty strains this scFv gave a signal, with their mean in brackets.

Data: MIT Lincoln Laboratory AlphaSeq set, Engelhart et al. 2022, doi:10.1038/s41597-022-01779-4, as distributed in FLAb.